The IC50 is the concentration that inhibits the measured activity by half. Read a low IC50 as higher potency.

Protein sequences, listed by entry. Tags and fused reporters are not part of them. Lines headed by an entry give the natural chain unless they say otherwise; changes in a name come on top.
UniProt Q99500: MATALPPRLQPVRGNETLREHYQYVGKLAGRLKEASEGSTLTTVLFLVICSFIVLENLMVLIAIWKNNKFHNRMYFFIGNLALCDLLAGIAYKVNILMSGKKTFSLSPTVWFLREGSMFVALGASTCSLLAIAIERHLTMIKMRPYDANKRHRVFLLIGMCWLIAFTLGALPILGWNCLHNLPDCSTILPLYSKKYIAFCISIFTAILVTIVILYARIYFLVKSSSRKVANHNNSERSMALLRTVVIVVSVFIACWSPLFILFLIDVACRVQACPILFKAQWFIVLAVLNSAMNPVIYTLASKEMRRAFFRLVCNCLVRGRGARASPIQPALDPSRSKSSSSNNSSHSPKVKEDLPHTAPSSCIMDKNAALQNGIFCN

Consider one compound from patent publication US8524917B2, “6-substituted indole-3-carboxylic acid amide compounds having sphingosine-1-phosphate (S1P) receptor antagonist biological activity” (Allergan, Inc., priority 2007, dated 2013).

The structures appear in SMILES notation.

In the test the target is human S1P3 receptor (Homo sapiens (Human), UniProt Q99500). The test can be described thus: Activation or block of activation of human S1P3 receptor, Ca+2 FLIPR assay. The test is classed as cell-based. The protocol:
Compounds were assessed for their ability to activate or block activation of the human S1P3 receptor in T24 cells stably expressing the human S1P3 receptor. Ten thousand cells/well were plated into 384-well poly-D-lysine coated plates one day prior to use. The growth media for the S1P3 receptor expressing cell line was McCoy's 5A medium supplemented with 10% charcoal-treated fetal bovine serum (FBS), 1% antibiotic-antimycotic and 400 μg/ml geneticin. On the day of the experiment, the cells were washed twice with Hank's Balanced Salt Solution supplemented with 20 mM HEPES (HBSS/Hepes buffer). […] Extracellular dye was removed by washing the cell plates four times prior to placing the plates in the FLIPR (Fluorometric Imaging Plate Reader, Molecular Devices). Ligands were diluted in HBSS/Hepes buffer and prepared in 384-well microplates. The positive control, Sphingosine-1-Phosphate (S1P), was diluted in HBSS/Hepes buffer with 4 mg/ml fatty acid free bovine serum albumin. The FLIPR transferred 12.5 μl from the ligand microplate to the cell plate and took fluorescent measurements for 75 seconds, taking readings every second, and then for 2.5 minutes, taking readings every 10 seconds. […] IC50 values were determined through a […] analysis using the Levenburg Marquardt algorithm.

As for `CC(C)c1c(C(=O)NCc2ccc(F)c(F)c2)c2ccc(Oc3nccs3)cc2n1Cc1ccccc1` [Compound 132, 1-Benzyl-N-(3,4-difluorobenzyl)-2-isopropyl-6-(1,3-thiazol-2-yloxy)-1H-indole-3-carboxamide], the “S1P3 (% inh)” value came to 99%. This compound gave an IC50 (T24 cells stably expressing the human S1P3 receptor, FLIPR Ca+2 response, 0.61 nM to 10,000 nM) of 16 nM.
